Experiments:
EGFR-Wt [1] = assay: MaMTH EGFR-interactor screen, lentiviral preys against EGFR-wildtype bait (interaction score); assay type: cell-based, human; conditions: ratio of EGFR-Wt mean to EGFR-L858R mean interaction score
Procedure: (§1) After lentivirus harvest, target cells (stable 5×GAL4UAS-luciferase reporter-HEK293T cells) were infected at a multiplicity of infection (MOI) of around 0.3-0.4 to ensure single copy integration per cell. Cells were selected in puromycin for at least 48 h and transfected with either EGFR-wildtype or EGFR-L858R baits in triplicates. 24 h after transfection, cells were lysed and luciferase assays performed. On each set of interaction assays, various negative controls were included. To calculate a MaMTH-interaction scores, negative controls were averaged and the fold-change of luciferase activity compared to the averaged controls was calculated and defined as the interaction score.
(§2) Each set of experiments contains a defined set of negative controls in at least three replicates. Negative controls were chosen as such that there is a range of controls showing high-background luciferase activity (normally cytosolic proteins: Fabp5, Pex19) as well as medium-background luciferase activity (membrane-bound interactors: Pex7, GABBR2). Negative controls were averaged and the fold-change of luciferase activity was calculated. Using this method, we have a stringent cut-off and chose an interaction score >1 to be interacting proteins.
(§3) Our cut-off of 1 is based on fold-change difference in luciferase activity over averaged negative controls. Negative controls include cytosolic preys (which tend to promiscuously bind to many proteins), plasma membrane- and peroxisomal-prey proteins. In general, we chose stringent conditions by testing preys that tend to have high luciferase background with any bait tested, in order to generate high-confidence interaction data. […] Phosphorylated tyrosine residues on the receptor are typically docking sites for downstream cytoplasmic targets and recognized through SH2 or PTB domains^43.

EGFR-Wt [2] = biological target: T1, EGFR-Wt (Homo sapiens, UniProt P00533); assay: as above; assay type: cell-based; conditions: MaMTH interaction score of prey with EGFR-Wt bait, mean
T1 construct: with the advantage of testing full-length integral membrane proteins; (GGGGS)2 linker-Cub (human ubiquitin aa 35-76)-GAL4(1-147)-mNFkB(364-550) (C); expressed in transfected cells
Procedure: as §1, §2, §3

EGFR-L858R = biological target: T2, EGFR-L858R (Homo sapiens, UniProt P00533, L858R); assay: MaMTH EGFR-interactor screen, lentiviral preys against EGFR-L858R bait (interaction score); assay type: cell-based; conditions: MaMTH interaction score of prey with EGFR-L858R bait
T2 construct: with the advantage of testing full-length integral membrane proteins; (GGGGS)2 linker-Cub (human ubiquitin aa 35-76)-GAL4(1-147)-mNFkB(364-550) (C); expressed in transfected cells
Procedure: as §1, §2, §3

Row | EGFR-Wt mean (EGFR-Wt [2]) | EGFR-L858R mean (EGFR-L858R) | Substance | Wt/L858R (EGFR-Wt [1])
1 | 2.52 | 5.38 | ARRB2 | 0.47
2 | 1.64 | 1.97 | CDK1 | 0.83
3 | 4.91 | 3.81 | RAF1 | 1.29
